# Experimental data published in article PMC6522914, “Benzonate derivatives of acetophenone as potent α-glucosidase inhibitors: synthesis, structure–activity relationship and mechanism” (Journal of Enzyme Inhibition and Medicinal Chemistry, 2019).
# System: intestinal α-glucosidase
# Assay: Everted intestinal sleeve assay
# Set-up: species or system Sprague–Dawley rats
# Conditions: 0.17 mM inhibitor, sucrose 1.5 mM, versus blank
# Description: ^1H NMR and ^13 C NMR spectra were carried out using a 500 MHz Avance spectrometer (Bruker, USA) or a Varian Mercury 400 MHz spectrometer. Chemical shifts were measured relative to the residual solvent peaks of CDCl3 with tetramethylsilane as the internal standard. High-resolution mass spectra were recorded on an AB SCIEX Triple TOF 5600+ spectrometer. The in vitro inhibitory activity and kinetic assay of α-glucosidase were measured by a microplate reader (Synergy HTX, BioTek Instruments Inc., Winooski, VT, USA). Fluorescence spectra were conducted on a spectrofluorometer (LS55, Perkin Elmer Inc., Waltham, MA, USA). All of the CD spectra were measured at 298 K with a circular spectrometer (Chirascan, Applied Photophysics Ltd., UK). Titration microcalorimetry measurement conducted on a Nano-ITC SV instrument (TA Instruments Ltd., UK). The surgeries were performed under anesthesia and all efforts were made to minimise animal suffering. The blood glucose levels were determined via a glucose detection kit (Robio Co., Ltd., Shanghai, China). […] The concentrations of glucose in the soaking solution and intestinal sleeve were detected using S-10 biosensor analyzer (Sieman Technology Co., Ltd., Shenzhen, China). All reaction progress was monitored by thin-layer chromatography (TLC) on silica gel GF254 (Qingdao Haiyang Chemical Co., Ltd., Qingdao, China) with ultraviolet detection. […]
smiles,measurement,setting,value
"C[C@H]1O[C@H](O[C@H]2[C@H](O)[C@@H](O)[C@@H](O[C@H]3[C@H](O)[C@@H](O)C(O)O[C@@H]3CO)O[C@@H]2CO)[C@H](O)[C@@H](O)[C@@H]1N[C@H]1C=C(CO)[C@@H](O)[C@H](O)[C@H]1O (some centres unmarked) [Acarbose, acarbose, reference compound]",total concentration of glucose,5–90 min,much lower than that of the blank
same,glucose concentration in the intestinal sleeves,,lower than that of blank
